# Target: T1, microtubules polymerised from tubulin (α1B and β2B tubulin) (UniProt P81947 1-451; Q6B856 1-445)
# Chains of the proteins cited; added tags and fusions are not shown.
# UniProt P81947, whole entry, chain 1 of 2: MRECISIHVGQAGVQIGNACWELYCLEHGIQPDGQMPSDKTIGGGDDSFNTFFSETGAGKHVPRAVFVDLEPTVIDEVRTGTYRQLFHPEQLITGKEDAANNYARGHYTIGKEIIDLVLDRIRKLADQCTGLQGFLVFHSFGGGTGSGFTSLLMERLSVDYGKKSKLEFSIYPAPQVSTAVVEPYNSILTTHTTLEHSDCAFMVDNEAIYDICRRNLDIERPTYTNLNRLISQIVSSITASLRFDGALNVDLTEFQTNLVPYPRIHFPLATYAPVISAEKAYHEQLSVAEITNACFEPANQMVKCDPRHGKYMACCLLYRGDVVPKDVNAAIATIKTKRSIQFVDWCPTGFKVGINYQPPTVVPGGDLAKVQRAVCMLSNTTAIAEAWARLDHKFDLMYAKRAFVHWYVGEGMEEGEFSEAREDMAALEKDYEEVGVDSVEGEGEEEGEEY
# microtubules polymerised from tubulin (α1B and β2B tubulin), UniProt Q6B856, whole entry, chain 2 of 2: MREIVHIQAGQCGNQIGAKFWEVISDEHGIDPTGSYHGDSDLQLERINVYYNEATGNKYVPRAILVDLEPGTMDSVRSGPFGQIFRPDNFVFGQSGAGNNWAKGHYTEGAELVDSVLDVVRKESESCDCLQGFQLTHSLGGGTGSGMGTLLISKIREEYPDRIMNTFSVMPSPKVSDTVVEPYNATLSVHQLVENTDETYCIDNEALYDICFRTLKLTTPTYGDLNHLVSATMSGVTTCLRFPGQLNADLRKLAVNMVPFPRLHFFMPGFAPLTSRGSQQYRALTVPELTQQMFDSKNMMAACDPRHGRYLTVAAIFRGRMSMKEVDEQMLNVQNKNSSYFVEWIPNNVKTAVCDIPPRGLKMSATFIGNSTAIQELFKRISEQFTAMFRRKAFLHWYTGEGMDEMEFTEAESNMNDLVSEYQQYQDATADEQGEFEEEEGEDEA
# T1 construct: α-tubulin, printed as α1B tubulin; β-tubulin, printed as β2B tubulin; Polymer of α/β-tubulin dimers; The same tubulin stood as taxol-stabilized (straight) MTs and as vinblastine spirals (curved); the assay tells them apart; brain tubulin is a mix of isotypes; also called MTs; taxol-stabilized MTs; source: bought: Cytoskeleton Inc. (tubulin), polymerised; taxol-stabilized MTs or vinblastine spirals
# Experiment: co-sedimentation; MT-pelleting assay: taxol-stabilized MTs or subtilisin-treated MTs (0-12 μM tubulin dimer) with 1 or 3 μM protein, 10 min at room temperature, BRB80 (80 mM PIPES pH 6.9, 1 mM EGTA, 1 mM MgCl2) with 100 mM NaCl, 4 mM DTT, 20 μM taxol; spun through a glycerol cushion, 25 °C; SDS-PAGE, Coomassie, ImageJ. Kd: 1 μM Ska and 0-12 μM MTs; single points: 3 μM Ska (or 1 μM) and 6 μM MTs
# Settings: both partners purified
row,Kd,Binder
1,17.1 ± 5.5 µM,"Ska complex with Ska1 K183/184/203/206A (complex, human) chain 1: MASSDLEQLCSHVNEKIGNIKKTLSLRNCGQEPTLKTVLNKIGDEIIVINELLNKLELEIQYQEQTNNSLKELCESLEEDYKDIEHLKENVPSHLPQVTVTQSCVKGSDLDPEEPIKVEEPEPVKKPPKEQRSIKEMPFITCDEFNGVPSYMKSRLTYNQINDVIKEINKAVISKYKILHQPAASMNSVTRNLYHRFIDEETADTAGRYFIVEADIKEFTTLKADKKFHVLLNILRHCRRLSEVRGGGLTRYVIT chain 2: MEAEVDKLELMFQKAESDLDYIQYRLEYEIKTNHPDSASEKNPVTLLKELSVIKSRYQTLYARFKPVAVEQKESKSRICATVKKTMNMIQKLQKQTDLELSPLTKEEKTAAEQFKFHMPDL chain 3: MDPIRSFCGKLRSLASTLDCETARLQRALDGEESDFEDYPMRILYDLHSEVQTLKDDINILLDKARLENQEGIDFIKATKVLMEKNSMDIMKIREYFQKYGYSPRVKKNSVHEQEAINSDPELSNCENFQKTDVKDDLSDPPVASSCISEKSPRSPQLSDFGLERYIVSQVLPNPPQAVNNYKEEPVIVTPPTKQSLVKVLKTPKCALKMDDFECVTPKLEHFGISEYTMCLNEDYTMGLKNARNNKSEEAIDTESRLNDNVFATPSPIIQQLEKSDAEYTNSPLVPTFCTPGLKIPSTKNSIALVSTNYPLSKTNSSSNDLEVEDRTSLVLNSDTCFENLTDPSSPTISSYENLLRTPTPPEVTKIPEDILQLLSKYNSNLATPIAIKAVPPSKRFLKHGQNIRDVSNKEN"
2,14.5 ± 2.8 µM,"Ska complex with Ska1 K217/223/226/227A (complex, human) chain 1: MASSDLEQLCSHVNEKIGNIKKTLSLRNCGQEPTLKTVLNKIGDEIIVINELLNKLELEIQYQEQTNNSLKELCESLEEDYKDIEHLKENVPSHLPQVTVTQSCVKGSDLDPEEPIKVEEPEPVKKPPKEQRSIKEMPFITCDEFNGVPSYMKSRLTYNQINDVIKEINKAVISKYKILHQPKKSMNSVTRNLYHRFIDEETKDTKGRYFIVEADIAEFTTLAADAAFHVLLNILRHCRRLSEVRGGGLTRYVIT chain 2: MEAEVDKLELMFQKAESDLDYIQYRLEYEIKTNHPDSASEKNPVTLLKELSVIKSRYQTLYARFKPVAVEQKESKSRICATVKKTMNMIQKLQKQTDLELSPLTKEEKTAAEQFKFHMPDL chain 3: MDPIRSFCGKLRSLASTLDCETARLQRALDGEESDFEDYPMRILYDLHSEVQTLKDDINILLDKARLENQEGIDFIKATKVLMEKNSMDIMKIREYFQKYGYSPRVKKNSVHEQEAINSDPELSNCENFQKTDVKDDLSDPPVASSCISEKSPRSPQLSDFGLERYIVSQVLPNPPQAVNNYKEEPVIVTPPTKQSLVKVLKTPKCALKMDDFECVTPKLEHFGISEYTMCLNEDYTMGLKNARNNKSEEAIDTESRLNDNVFATPSPIIQQLEKSDAEYTNSPLVPTFCTPGLKIPSTKNSIALVSTNYPLSKTNSSSNDLEVEDRTSLVLNSDTCFENLTDPSSPTISSYENLLRTPTPPEVTKIPEDILQLLSKYNSNLATPIAIKAVPPSKRFLKHGQNIRDVSNKEN"
3,20 ± 4.5 µM,"Ska complex with Ska1 R155/236/245A (complex, human) chain 1: MASSDLEQLCSHVNEKIGNIKKTLSLRNCGQEPTLKTVLNKIGDEIIVINELLNKLELEIQYQEQTNNSLKELCESLEEDYKDIEHLKENVPSHLPQVTVTQSCVKGSDLDPEEPIKVEEPEPVKKPPKEQRSIKEMPFITCDEFNGVPSYMKSALTYNQINDVIKEINKAVISKYKILHQPKKSMNSVTRNLYHRFIDEETKDTKGRYFIVEADIKEFTTLKADKKFHVLLNILAHCRRLSEVAGGGLTRYVIT chain 2: MEAEVDKLELMFQKAESDLDYIQYRLEYEIKTNHPDSASEKNPVTLLKELSVIKSRYQTLYARFKPVAVEQKESKSRICATVKKTMNMIQKLQKQTDLELSPLTKEEKTAAEQFKFHMPDL chain 3: MDPIRSFCGKLRSLASTLDCETARLQRALDGEESDFEDYPMRILYDLHSEVQTLKDDINILLDKARLENQEGIDFIKATKVLMEKNSMDIMKIREYFQKYGYSPRVKKNSVHEQEAINSDPELSNCENFQKTDVKDDLSDPPVASSCISEKSPRSPQLSDFGLERYIVSQVLPNPPQAVNNYKEEPVIVTPPTKQSLVKVLKTPKCALKMDDFECVTPKLEHFGISEYTMCLNEDYTMGLKNARNNKSEEAIDTESRLNDNVFATPSPIIQQLEKSDAEYTNSPLVPTFCTPGLKIPSTKNSIALVSTNYPLSKTNSSSNDLEVEDRTSLVLNSDTCFENLTDPSSPTISSYENLLRTPTPPEVTKIPEDILQLLSKYNSNLATPIAIKAVPPSKRFLKHGQNIRDVSNKEN"

# — paper PMC3923297, “Structural basis for microtubule recognition by the human kinetochore Ska complex” (Nature Communications, 2014)
